Earlier results in paper PMC12503912 (Chemmedchem, 2025).

Settings: metabolites of dolastatin 15, cemadotin and tasidotin; cited from earlier work

## NMe2Val-Val-NMe-Val-Pro-Pro [Peptide 1]
  cytotoxic / antimitotic activity of metabolite: even higher than that of tasidotin
